Literature values, collected in article PMC5105194.

Molecular target: VPS29 (Homo sapiens) (UniProt Q9UBQ0)
Test: ITC
Details: cited from earlier work

## VPS35 (from UniProt Q96QK1)
  Kd: 0.2 µM
